Legend:
[1] = system: primary rat Leydig cells; assay: hCG-stimulated testosterone production in primary rat Leydig cells treated with dexamethasone with or without glucocorticoid receptor antagonist (Elisa); assay type: cell-based
Description: (§1) Testicular cells were prepared from the testicles of sexually mature, 12-week old, male Wistar rats by means of a collagenase treatment. Leydig cells were obtained from this preparation by a continuous Percoll gradient centrifugation.
(§2) Freshly prepared Leydig cells were sown in microtiter plates in 100 μL of DMEM/F12 with phenol red (20,000) cells/well) with addition of 0.1% BSA, penicillin (100 U/ml) and streptomycin (100 μg/ml). After one hour, the medium was changed with addition of substance. For 18 hours, the Leydig cells were incubated with dexamethasone alone or together with glucocorticoid receptor antagonists (250 μL of DMEM/well with addition of penicillin (100 U/ml) and streptomycin (100 μg/ml)). […] Ethanol was used as solvent for dexamethasone and the glucocorticoid receptor antagonists; the final concentration of the ethanol was not more than 0.2%.
Aliquots of the supernatant were frozen at −70° C. Testosterone was measured with a commercial Elisa (IBL, Hamburg). The standard curve of testosterone Elisa was then adapted to the cell culture conditions.

[2] = system: primary rat Leydig cells; assay: Cell damage: activity of mitochondrial succinate dehydrogenase (WST-1 test) in primary rat Leydig cell cultures; assay type: cell-based
Description: as §1, §2
Parallel to the testosterone measurement, cell damage was determined after the 26 hours by measuring the activity of the mitochondrial succinate dehydrogenase (WST-1 test, Böhringer, Mannheim).

## hCG: human chorionic gonadotropin (hCG, Sigma), used to stimulate the testosterone production of the cells
[1]; hCG alone 0.5 ng/ml
  Testosterone Production, Average value ± SD: 4.26 ± 1.11 ng/mL
[1]; hCG alone 0.5 ng/ml, basal = 0
  Testosterone Production, Average value ± SD (%): 100.00 ± 27.25%
[1]; hCG stimulation of cultured Leydig cells
  Effect of stimulation on testosterone production (in words): multiple increase in the testosterone production
[2]; hCG alone 0.5 ng/ml
  Succinate Dehydrogenase Activity, Average value ± SD: 0.281 ± 0.041 Absorptions Units
[2]; hCG in the given dose
  Effect of stimulation on mitochondrial succinate dehydrogenase activity (in words): not changed

— patent US6670493B2, “Methods and compositions for treating diseases due to androgen deficiency with glucocorticoid receptor antagonist compounds and new compounds” (Jenapharm GmbH & Co. KG, priority 2001, dated 2003)
